# Literature values in patent US12527781B2, “Treatment of neurodegenerative conditions by disruption of Rhes” (The Regents of the University of California, priority 2017, dated 2026).
# Molecular target: farnesyl transferase (Homo sapiens, UniProt P49356)
# Conditions: farnesyl transferase inhibitor; cited from earlier work
smiles,measurement,value
NC(=O)N1CCC(CC(=O)N2CCC([C@H]3c4ncc(Br)cc4CCc4cc(Cl)cc(Br)c43)CC2)CC1 [Lonafarnib],Ki,in the nM range
